Patent US5849771A, “Phosphorylated nitrone derivatives, method for preparing same, and compositions containing said derivatives” (Centre National de la Recherche Scientifique (C.N.R.S.), priority 1995, dated 1998)

Tests used:
[1] = Kinetics of decomposition (EPR) of superoxide trapping adducts (nitrone-OOH) in phosphate buffer medium; settings: decay of nitrone-OOH adduct, 0.1M phosphate buffer pH=5.8
Source text: The adducts from trapping with the superoxide radical were produced using the riboflavin-DTPA (diethylenetriaminepentaacetic acid) system.
This system contains 1M of DTPA, […] of riboflavin and 0.1M of nitrone in a 0.1M phosphate buffer at pH=5.8.
This mixture is transferred into the cell of a Varian E-9 spectrometer. The cell is then irradiated to generate the superoxide radical in situ. At the end of irradiation the decrease in the adducts (nitrone-OOH) is studied using EPR analysis.

physchem = assay: physchem
Procedure: Biol. Med. 14 (1993) 127. The partition coefficients are defined simply as the ratio of the nitrone concentration in the lipophilic phase (n-octanol) to the nitrone concentration in the aqueous phase.
Identical volumes (2 cm^3) of the octanolic nitrone solution prepared above and of a 10 mM phosphate buffer of pH=7.4 are agitated vigorously at 37° C. for 1 hour and the two phases are then separated by centrifuging (1000 g for 20 s) . The respective nitrone concentrations in each phase are then measured.

CCOP(=O)(OCC)C(C)(C)[N+]([O-])=Cc1ccccc1 [Example 1, Diethyl 1-(N-benzylidene-N-oxy)amino-1-methylethyl-phosphonate]
Kinetic constant k [1]: 2.26 ± 0.03 10^3 s^-1
lipophilic/hydrophilic character (physchem; from partition coefficients, n-octanol/phosphate buffer): lipophilic
logD at 1 h (physchem; n-octanol/10 mm phosphate buffer, pH 7.4): 1
